AlphaSeq binding of Ab-95 light chain variants to a spike HR2 peptide

Target peptide (SARS-CoV-2 spike, HR2 region): PDVDLGDISGINAS

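The starting antibody came from a phage panning campaign against this peptide. Variants in AAYL52 differ from the parent at up to three CDR positions; double and triple changes were sampled at random. In AlphaSeq, yeast of one mating type display the scFv and yeast of the other type display the target. The frequency of each diploid, read from paired DNA barcodes, reflects how well the two displayed proteins bind. The ratio of observed to expected reads was calibrated, replicate by replicate, on BCL2-family standards whose Kd was known from biolayer interferometry. Each pool was mated in three replicate cultures.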

Parent scFv Ab-95: VH joined to VL by a (GGGGS)3 linker. Changes lie in the light chain CDRs alone.
VH: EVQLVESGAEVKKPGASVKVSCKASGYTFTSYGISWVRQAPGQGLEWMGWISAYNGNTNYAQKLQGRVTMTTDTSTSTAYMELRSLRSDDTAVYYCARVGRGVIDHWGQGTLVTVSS
VL: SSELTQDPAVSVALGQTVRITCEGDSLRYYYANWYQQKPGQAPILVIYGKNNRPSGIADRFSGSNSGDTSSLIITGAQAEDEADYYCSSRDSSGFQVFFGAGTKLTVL

Positions count from residue 1 of the parent VL; S26Q puts Q in place of S. Only single mutants are listed, position by position. Each Kd is an estimate from the mating assay, the geometric mean of the replicates in which the pair was seen; lower is stronger. Where no diploid with the target was found in any replicate, the entry reads "no signal": below detection, most likely a poor binder, though not proof of it.

| changes | Kd (apparent) | seen in |
|---|---|---|
| S26Q | 3.1 µM | 3 of 3 |
| S26D | 210 nM | 3 of 3 |
| S26Y | 36 nM | 3 of 3 |
| S26E | 5.0 µM | 3 of 3 |
| S26H | no signal | 0 of 3 |
| S26T | 3.3 µM | 3 of 3 |
| S26F | 1.7 µM | 1 of 3 |
| S26A | 110 nM | 3 of 3 |
| S26K | 2.6 µM | 1 of 3 |
| S26I | 390 nM | 3 of 3 |
| S26L | 8.1 µM | 1 of 3 |
| S26C | 760 nM | 3 of 3 |
| S26M | 1.0 µM | 3 of 3 |
| S26V | 1.9 µM | 3 of 3 |
| S26N | 1.0 µM | 3 of 3 |
| L27K | no signal | 0 of 3 |
| L27R | 8.7 µM | 2 of 3 |
| L27Y | 130 nM | 3 of 3 |
| L27N | 3.5 µM | 3 of 3 |
| L27V | 2.6 µM | 3 of 3 |
| L27M | 380 nM | 3 of 3 |
| L27Q | 460 nM | 3 of 3 |
| L27C | 6.8 µM | 2 of 3 |
| L27D | 3.3 µM | 2 of 3 |
| L27F | 190 nM | 3 of 3 |
| L27T | 1.1 µM | 1 of 3 |
| L27I | 160 nM | 3 of 3 |
| L27E | 1.8 µM | 3 of 3 |
| L27P | 28 µM | 2 of 3 |
| L27A | 530 nM | 3 of 3 |
| L27G | 2.8 µM | 2 of 3 |
| L27H | 7.5 µM | 3 of 3 |
| L27W | 160 nM | 3 of 3 |
| L27S | 660 nM | 3 of 3 |
| R28D | 240 nM | 3 of 3 |
| R28I | 210 nM | 3 of 3 |
| R28M | 5.0 µM | 3 of 3 |
| R28W | 1.0 µM | 3 of 3 |
| R28L | 180 nM | 3 of 3 |
| R28Q | 64 nM | 3 of 3 |
| R28S | 130 nM | 3 of 3 |
| R28N | 51 nM | 3 of 3 |
| R28E | 190 nM | 3 of 3 |
| R28F | 1.2 µM | 3 of 3 |
| R28A | 110 nM | 3 of 3 |
| R28K | 60 nM | 3 of 3 |
| R28Y | 1.5 µM | 2 of 3 |
| R28T | 180 nM | 3 of 3 |
| R28C | 280 nM | 3 of 3 |
| R28P | 57 nM | 3 of 3 |
| R28H | 170 nM | 3 of 3 |
| R28V | 340 nM | 3 of 3 |
| R28G | 150 nM | 3 of 3 |
| Y29D | 22 nM | 3 of 3 |
| Y29G | 7.7 nM | 3 of 3 |
| Y29N | 25 nM | 3 of 3 |
| Y29Q | 82 nM | 3 of 3 |
| Y29M | 1.6 µM | 3 of 3 |
| Y29T | 81 nM | 3 of 3 |
| Y29S | 24 nM | 3 of 3 |
| Y29P | 290 nM | 3 of 3 |
| Y29W | 21 nM | 3 of 3 |
| Y29E | 110 nM | 3 of 3 |
| Y29F | 170 nM | 3 of 3 |
| Y29V | 520 nM | 3 of 3 |
| Y29K | 230 nM | 3 of 3 |
| Y29L | 560 nM | 3 of 3 |
| Y29C | 130 nM | 3 of 3 |
| Y29A | 46 nM | 3 of 3 |

In this assay the parent's reference entry averaged 200 nM; its copy inside this library read 180 nM. As a blank, each scFv also met three strains without target: over library AAYL52, 28% of these pairings were detected, typically at 8.2 µM and seldom below 800 nM.

Values reported by Engelhart et al. 2022, doi:10.1038/s41597-022-01779-4 (FLAb copy).